Test results: PMC7864078

Experiments:
[1] = target: Staphylococcus epidermidis RNase J1 (full-length, amino acids 1-560) (Staphylococcus epidermidis) (UniProt Q5HQ80); test: SEC-MALS; miniDAWN TREOS; same Superdex200 column and buffer as the SEC (50 mM Tris-HCl pH 8.0, 250 mM NaCl, 10% glycerol, 4 mM β-ME, 0.5 mM TCEP, 5 mM MgCl2)
[2] = target: Staphylococcus epidermidis RNase J1 (full-length, amino acids 1-560) (Staphylococcus epidermidis) (UniProt Q5HQ80); test: SEC; analytical Superdex200; 250 μg of each freshly purified enzyme injected separately; 50 mM Tris-HCl pH 8.0, 250 mM NaCl, 10% glycerol, 4 mM β-ME, 0.5 mM TCEP, 5 mM MgCl2

With “Staphylococcus epidermidis RNase J1 (full-length, amino acids 1-560) (from UniProt Q5HQ80 1-560) (enzyme)” the stoichiometry N [1] was 2 and the stoichiometry N [2] was 2.
